Measurements reported in PMC1090567, “S-Nitrosothiols modulate G protein-coupled receptor signaling in a reversible and highly receptor-specific manner” (BMC Cell Biology, 2005).

Chains of the proteins cited; added tags and fusions are not shown.
UniProt P33535, whole entry: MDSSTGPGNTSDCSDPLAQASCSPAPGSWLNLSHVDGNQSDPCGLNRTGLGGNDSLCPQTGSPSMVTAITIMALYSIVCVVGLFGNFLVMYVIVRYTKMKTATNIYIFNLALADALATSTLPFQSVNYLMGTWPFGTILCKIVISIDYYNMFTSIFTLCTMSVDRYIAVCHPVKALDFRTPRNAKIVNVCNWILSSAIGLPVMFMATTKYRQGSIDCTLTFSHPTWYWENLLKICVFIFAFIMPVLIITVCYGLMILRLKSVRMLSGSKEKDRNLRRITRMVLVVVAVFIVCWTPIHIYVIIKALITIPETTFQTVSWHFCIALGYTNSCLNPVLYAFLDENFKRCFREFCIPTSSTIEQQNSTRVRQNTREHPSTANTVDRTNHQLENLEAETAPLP

Molecular target: T1, μ-opiate (Rattus norvegicus, UniProt P33535)
T1 construct: gene Oprm1; native receptor in rat forebrain P2 membranes
Assay: […]GTPγS binding, rat forebrain membranes
Type: biochemical
Conditions: agonist; control without GSNO; 10 μM GDP, pH 7.4, 25 °C

SMILES: C[C@@H](NC(=O)[C@@H](N)Cc1ccc(O)cc1)C(=O)NCC(=O)N(C)[C@@H](Cc1ccccc1)C(=O)NCCO [DAMGO, [D-Ala^2, N-Me-Phe^4, Gly^5-ol]-enkephalin]
- Control / log(EC50): -6.85 ± 0.09
